Measured values from ChEMBL document CHEMBL5126672, “Discovery of κ Opioid Receptor (KOR)-Selective d-Tetrapeptides with Improved In Vivo Antinociceptive Effect after Peripheral Administration” (ACS Med Chem Lett, 2022).
Calls of active or inactive are those of the source. The calls are words filed in the database; no cut-off is given here.

Columns and labels:
Mus musculus [1] = experiment: Antinociceptive activity in CD-1 mouse assessed as maximum possible effect at 10 nmol, icv measured after 15 to 120 mins by tail-flick test; type: functional, organism-based; conditions: time 15-120 min
Method in brief: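 Tail flick test in mice after intracerebroventricular injection of 10 nmol/mouse, with vehicle-treated and U50,488H control groups. Antinociception was expressed as maximum possible effect. N = 7 per group.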

Mus musculus [2] = experiment: Antinociceptive activity in CD-1 mouse assessed as maximum possible effect at 20 umol/kg, iv measured after 15 to 120 mins by tail-flick test; type: functional, organism-based; conditions: dose 20.0 µmol/kg, time 15-120 min
Method in brief: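 Intravenous dosing at 20 μmol/kg in mice, followed by tail flick testing with antinociception expressed as maximum possible effect. Vehicle-treated animals served as controls. N = 8.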

Structure (SMILES): CN(C(=O)Cc1ccc(Cl)c(Cl)c1)C1CCCCC1N1CCCC1 (configuration not stated)
- Activity (Mus musculus [1]): Active
- Activity (Mus musculus [2]): Active
